Tested on: 22Rv1 tumor-bearing mice
Assay: Biodistribution in 22Rv1 tumor-bearing mice
Conditions: 0.74 MBq, n = 3; for Uptake Heart, Mean: 30 min p.i.
Experimental: The animal studies were approved by the institutional animal care and use committee of the Chinese PLA General Hospital. Healthy male ICR mice were injected with either a novel radiotracer (37 MBq in 150 μL) or saline (150 μL) for the radiotoxicity evaluation. […] Biodistribution and micro-PET studies were performed on 22Rv1 and PC-3 xenograft models, and 2-PMPA was used as the PSMA blocker (all details are shown in the Supplementary Materials).
BALB/c nude mice (male, 4-6 weeks) were inoculated subcutaneously with […]
100 mm3, the mice underwent biodistribution study and Micro-PET imaging.
The 22Rv1 tumor-bearing mice were injected with each novel radiotracer or […]
[…] Mice were sacrificed at different time points p.i. (10 min, 30 min, 60 min), tumors and interested organs were harvested, weighed and measured by a γ-counter, the results were expressed as the percentage of injected dose per gram (ID%/g).
Table S1. Uptake values for ex vivo tissues of [ 68Ga]Ga-PSMA-Q (0.74 MBq/mice) in 22Rv1 tumor-bearing mice (10, 30 and 60 min p.i., n = 3/time point).

SMILES | Uptake Heart, Mean [ID%/g] | other results
O=C([O-])CN1CCN(CC(=O)[O-])CCN(CC(=O)NCC2CCC(C(=O)NC(Cc3ccncc3)C(=O)NCCCCC(NC(=O)NC(CCC(=O)O)C(=O)O)C(=O)O)CC2)CCN(CC(=O)O)CC1.[68Ga+3] (stereo not shown) [[^68Ga]Ga-PSMA-4PY] | – | Uptake Kidney, Mean (60 min p.i.): 1.85 ID%/g
O=C([O-])CN1CCN(CC(=O)[O-])CCN(CC(=O)NCc2ccc(C(=O)NC(Cc3cnc4ccccc4c3)C(=O)NCCCCC(NC(=O)NC(CCC(=O)O)C(=O)O)C(=O)O)cc2)CCN(CC(=O)O)CC1.[68Ga+3] (stereo not shown) [[^68Ga]Ga-PSMA-Q-3] | – | Uptake Liver, Mean (60 min p.i.): 1.01 ID%/g
O=C([O-])CN1CCN(CC(=O)[O-])CCN(CC(=O)NCCCCC(=O)NC(Cc2cnc3ccccc3c2)C(=O)NCCCCC(NC(=O)NC(CCC(=O)O)C(=O)O)C(=O)O)CCN(CC(=O)O)CC1.[68Ga+3] (stereo not shown) [[^68Ga]Ga-PSMA-Q-1] | 1.01 | –
O=C([O-])CN(CCN(CC(=O)[O-])Cc1cc(CCC(=O)NCCCCCC(=O)NCCCC[C@H](NC(=O)N[C@@H](CCC(=O)O)C(=O)O)C(=O)O)ccc1[O-])Cc1cc(CCC(=O)O)ccc1[O-].[68Ga+3].[OH3+] [[^68Ga]Ga-PSMA-11, reference compound] | 1.01 | –

Source: paper PMC9414910, “Optimized ^68Ga-Labeled Urea-Based PSMA-Targeted PET Tracers for Prostate Cancer” (Pharmaceuticals, 2022)
